# Ab-14 heavy chain CDR variants: yeast mating affinities

Reference: Li et al. 2023, doi:10.1038/s41467-023-39022-2. File: FLAb, binding data.

Binding partner: SARS-CoV-2 spike HR2 peptide, sequence PDVDLGDISGINAS.

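The starting antibody came from a phage panning campaign against this peptide. This is the validation round: designs drawn from the data on random variants, tested in the same kind of assay. Their group label is 14H_GPLM_Gibbs (GPLM: also part of the Gaussian process libraries; Gibbs: Gibbs sampling; a sequence that several methods proposed may carry one label only). The scFvs were displayed on barcoded MATa yeast, the peptide on MATalpha yeast. The frequency of each diploid, read from paired DNA barcodes, reflects how well the two displayed proteins bind. Each replicate has its own calibration line, from reference interactions of the BCL2 family. Mating was done six times.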

The variants keep the light chain, the linker and the frameworks of Ab-14 (scFv order VH, a 15-residue (Gly4Ser)3 linker, VL).
VH: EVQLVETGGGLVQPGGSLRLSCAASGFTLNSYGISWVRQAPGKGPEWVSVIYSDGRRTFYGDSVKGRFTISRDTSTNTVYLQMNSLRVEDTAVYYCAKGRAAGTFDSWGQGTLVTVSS
VL: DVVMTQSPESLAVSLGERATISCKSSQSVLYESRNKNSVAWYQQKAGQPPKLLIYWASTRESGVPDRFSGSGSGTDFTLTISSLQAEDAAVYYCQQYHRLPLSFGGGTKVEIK

Substitutions are numbered in sequence along the VH above, starting at 1 (not Kabat).
Values are log10 of the apparent Kd in nM; lower means stronger binding.
Where no diploid with the target was found in that replicate, the entry reads "nd": below detection, most likely a poor binder, though not proof of it.
Values of this round are not directly comparable with the first-round values of the same sequences.

The variant G61I R100K A101E showed 0.25, nd, 1.05, nd, 1.47, nd (controls 0 of 18).
The variant T28D R100W A101M showed -1.08, -0.74, -0.69, nd, -1.32, -0.35 (controls 0 of 18).
The variant T28D R100Q S107D showed 0.80, 0.89, 0.55, 1.15, 1.40, 0.82 (controls 0 of 18).
The variant T28E S31M A101T showed 0.78, 0.33, 0.69, 0.56, 0.61, 0.89 (controls 3 of 18).
The variant T28W G61A A101N showed 1.26, 1.41, 1.34, 2.63, 1.78, 2.50 (controls 0 of 18).
The variant T28Q S31E A101Q S107A showed 0.32, 0.36, 0.26, 0.26, 0.09, 0.44 (controls 1 of 18).
The variant T28E N30K S53A R100Q showed 0.01, -0.02, -0.24, -0.09, -0.26, -0.04 (controls 0 of 18).
The variant T28D R100H A101E showed -0.19, -0.10, -0.23, -0.27, -0.16, -0.24 (controls 1 of 18).
The variant T28E G61T R100K A101E showed -0.15, 0.04, -0.11, -0.02, -0.38, 0.08 (controls 0 of 18).
The variant T28S G61S R100K A101V showed -0.21, 0.51, -1.10, -0.17, 0.25, -0.12 (controls 0 of 18).
The variant G26K T28S G61K A101T showed 0.92, 1.88, 1.10, 1.59, 1.78, 1.46 (controls 0 of 18).
The variant T28D A101T T104S showed 0.20, 0.50, 0.29, -0.30, 0.67, 0.66 (controls 0 of 18).
The variant T28W S31E F59A showed 0.58, 0.44, 0.52, -0.02, 0.99, 0.33 (controls 0 of 18).
The variant T28E S31M A101Q showed 1.69, 0.56, nd, 1.19, 1.94, 1.97 (controls 0 of 18).
The variant T28D A101T T104K showed nd, nd, nd, nd, nd, nd (controls 0 of 18).
The variant R100S A101T S107V showed 0.63, 0.48, 0.19, 0.59, 0.93, 1.15 (controls 1 of 18).
The variant T28S G61V R100Q S107T showed 1.43, 0.91, 1.04, 0.23, 0.58, 0.89 (controls 0 of 18).
The variant T28N S31T R100E showed nd, 1.67, 0.35, nd, nd, 1.63 (controls 0 of 18).
The variant T28D R100E A101T showed 0.02, 0.10, 0.32, 0.07, -0.19, 0.13 (controls 3 of 18).
The variant R56M A101V S107T showed nd, 1.82, 0.76, 2.97, 0.92, 1.19 (controls 0 of 18).
The variant R56L G61A R100K A101V showed 0.57, 1.22, nd, 1.65, nd, 1.54 (controls 0 of 18).
The variant T28D R100Q S107T showed 0.45, -0.14, -0.12, 0.23, 0.24, 0.42 (controls 1 of 18).
The variant T28E G61Q R100Q A101T showed 1.68, 0.68, 0.80, 0.13, 0.27, 0.57 (controls 0 of 18).
The variant T28S G61D A101Q showed 0.40, 0.31, 0.23, 0.31, 0.56, 0.31 (controls 0 of 18).
The variant T28S S31T A101E showed 0.13, -0.40, 0.79, 0.09, 0.30, 0.49 (controls 2 of 18).
The variant T28D R100V showed 0.30, 0.25, 0.24, 0.89, 0.50, 0.02 (controls 0 of 18).
The variant S53A R100K A101V S107T showed -0.28, -0.31, -0.48, -0.46, -0.39, -0.04 (controls 0 of 18).
The variant R56M A101V S107V showed nd, nd, 1.35, 1.31, 0.40, 1.40 (controls 0 of 18).
The variant T28S S31E A101T S107G showed -0.04, -0.19, -0.16, -0.39, -0.06, -0.34 (controls 0 of 18).
The variant T28D G61A S63A A101T showed 0.57, 0.60, 0.08, 0.47, 1.27, 0.45 (controls 0 of 18).
The variant T28E F59A A101Q showed 0.57, 0.63, -0.05, 0.48, 0.28, 1.20 (controls 1 of 18).
The variant T28S S31N R56K A101Q showed 1.96, 1.77, 1.89, 1.94, 1.78, 2.03 (controls 0 of 18).
The variant T28S G61V R100T A101V showed -0.09, -0.17, -0.06, -0.07, -0.03, 0.28 (controls 0 of 18).
The variant T28E S31M G61A R100N showed 1.25, 0.40, 0.15, 0.52, 0.63, 0.07 (controls 0 of 18).
The variant T28S R100W S107D showed nd, nd, nd, nd, -0.10, 0.71 (controls 0 of 18).
The variant T28G S31E A101Q showed 1.96, 0.24, 0.46, 0.16, 0.81, 0.84 (controls 1 of 18).

The authors' rule: three or more of the six replicates give a measured affinity, fewer mean a poor binder.
As a blank, each scFv also met three strains without target: over all heavy chain designs, 1% of these pairings were detected, typically at 2.08 and seldom below 0.84. For each scFv, signals with the empty controls are counted beside the result.